Experimental findings from US20260092071A1, “COMPOUNDS AND COMPOSITIONS AS SMARCA2/4 DEGRADERS AND USES THEREOF” (REGENTS OF THE UNIVERSITY OF MICHIGAN, priority 2022, published 2026) are described below.

By UniProt entry, the sequences of proteins in these tests, tags left out.
UniProt P51531, whole entry: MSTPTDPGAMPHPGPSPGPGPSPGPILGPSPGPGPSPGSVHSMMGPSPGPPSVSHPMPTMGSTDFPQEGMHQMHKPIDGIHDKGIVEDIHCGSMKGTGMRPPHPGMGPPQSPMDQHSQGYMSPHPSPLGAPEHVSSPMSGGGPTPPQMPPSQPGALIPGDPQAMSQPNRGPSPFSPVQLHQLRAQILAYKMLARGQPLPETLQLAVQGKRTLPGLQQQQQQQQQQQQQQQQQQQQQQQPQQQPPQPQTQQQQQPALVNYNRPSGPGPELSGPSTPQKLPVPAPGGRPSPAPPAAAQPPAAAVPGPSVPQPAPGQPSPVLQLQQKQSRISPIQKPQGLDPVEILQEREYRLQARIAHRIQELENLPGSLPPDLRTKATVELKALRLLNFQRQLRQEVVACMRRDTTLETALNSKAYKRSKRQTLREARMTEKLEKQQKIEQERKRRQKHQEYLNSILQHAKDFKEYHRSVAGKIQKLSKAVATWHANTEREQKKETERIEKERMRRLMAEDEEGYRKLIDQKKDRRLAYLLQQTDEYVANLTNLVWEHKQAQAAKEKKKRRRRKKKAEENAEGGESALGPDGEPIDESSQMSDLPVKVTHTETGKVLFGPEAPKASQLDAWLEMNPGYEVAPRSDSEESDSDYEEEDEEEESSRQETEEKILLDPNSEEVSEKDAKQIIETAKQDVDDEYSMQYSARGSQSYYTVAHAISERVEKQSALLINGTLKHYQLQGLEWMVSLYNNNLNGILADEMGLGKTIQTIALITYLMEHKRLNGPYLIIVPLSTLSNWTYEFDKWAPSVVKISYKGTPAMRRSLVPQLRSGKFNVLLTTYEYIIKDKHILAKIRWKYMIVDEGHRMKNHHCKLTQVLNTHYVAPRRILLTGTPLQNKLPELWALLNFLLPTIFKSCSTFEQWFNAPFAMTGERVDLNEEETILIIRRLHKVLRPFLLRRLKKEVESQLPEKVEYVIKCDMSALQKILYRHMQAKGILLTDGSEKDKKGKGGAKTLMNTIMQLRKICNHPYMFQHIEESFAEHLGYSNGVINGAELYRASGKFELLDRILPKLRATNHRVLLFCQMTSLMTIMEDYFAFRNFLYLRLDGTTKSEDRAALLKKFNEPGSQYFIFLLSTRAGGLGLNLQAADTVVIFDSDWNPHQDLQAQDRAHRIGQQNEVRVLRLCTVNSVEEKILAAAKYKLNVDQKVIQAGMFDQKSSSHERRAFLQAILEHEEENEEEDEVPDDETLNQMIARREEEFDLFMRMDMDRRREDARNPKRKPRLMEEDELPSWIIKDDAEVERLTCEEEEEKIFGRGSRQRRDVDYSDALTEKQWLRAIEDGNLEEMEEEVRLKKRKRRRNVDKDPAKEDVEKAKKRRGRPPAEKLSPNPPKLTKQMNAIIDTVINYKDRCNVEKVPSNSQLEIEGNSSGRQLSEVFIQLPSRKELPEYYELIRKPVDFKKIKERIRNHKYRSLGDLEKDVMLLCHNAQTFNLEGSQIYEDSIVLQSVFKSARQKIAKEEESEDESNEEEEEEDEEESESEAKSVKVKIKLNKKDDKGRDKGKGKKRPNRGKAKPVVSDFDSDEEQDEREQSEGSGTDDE
UniProt P51532, whole entry: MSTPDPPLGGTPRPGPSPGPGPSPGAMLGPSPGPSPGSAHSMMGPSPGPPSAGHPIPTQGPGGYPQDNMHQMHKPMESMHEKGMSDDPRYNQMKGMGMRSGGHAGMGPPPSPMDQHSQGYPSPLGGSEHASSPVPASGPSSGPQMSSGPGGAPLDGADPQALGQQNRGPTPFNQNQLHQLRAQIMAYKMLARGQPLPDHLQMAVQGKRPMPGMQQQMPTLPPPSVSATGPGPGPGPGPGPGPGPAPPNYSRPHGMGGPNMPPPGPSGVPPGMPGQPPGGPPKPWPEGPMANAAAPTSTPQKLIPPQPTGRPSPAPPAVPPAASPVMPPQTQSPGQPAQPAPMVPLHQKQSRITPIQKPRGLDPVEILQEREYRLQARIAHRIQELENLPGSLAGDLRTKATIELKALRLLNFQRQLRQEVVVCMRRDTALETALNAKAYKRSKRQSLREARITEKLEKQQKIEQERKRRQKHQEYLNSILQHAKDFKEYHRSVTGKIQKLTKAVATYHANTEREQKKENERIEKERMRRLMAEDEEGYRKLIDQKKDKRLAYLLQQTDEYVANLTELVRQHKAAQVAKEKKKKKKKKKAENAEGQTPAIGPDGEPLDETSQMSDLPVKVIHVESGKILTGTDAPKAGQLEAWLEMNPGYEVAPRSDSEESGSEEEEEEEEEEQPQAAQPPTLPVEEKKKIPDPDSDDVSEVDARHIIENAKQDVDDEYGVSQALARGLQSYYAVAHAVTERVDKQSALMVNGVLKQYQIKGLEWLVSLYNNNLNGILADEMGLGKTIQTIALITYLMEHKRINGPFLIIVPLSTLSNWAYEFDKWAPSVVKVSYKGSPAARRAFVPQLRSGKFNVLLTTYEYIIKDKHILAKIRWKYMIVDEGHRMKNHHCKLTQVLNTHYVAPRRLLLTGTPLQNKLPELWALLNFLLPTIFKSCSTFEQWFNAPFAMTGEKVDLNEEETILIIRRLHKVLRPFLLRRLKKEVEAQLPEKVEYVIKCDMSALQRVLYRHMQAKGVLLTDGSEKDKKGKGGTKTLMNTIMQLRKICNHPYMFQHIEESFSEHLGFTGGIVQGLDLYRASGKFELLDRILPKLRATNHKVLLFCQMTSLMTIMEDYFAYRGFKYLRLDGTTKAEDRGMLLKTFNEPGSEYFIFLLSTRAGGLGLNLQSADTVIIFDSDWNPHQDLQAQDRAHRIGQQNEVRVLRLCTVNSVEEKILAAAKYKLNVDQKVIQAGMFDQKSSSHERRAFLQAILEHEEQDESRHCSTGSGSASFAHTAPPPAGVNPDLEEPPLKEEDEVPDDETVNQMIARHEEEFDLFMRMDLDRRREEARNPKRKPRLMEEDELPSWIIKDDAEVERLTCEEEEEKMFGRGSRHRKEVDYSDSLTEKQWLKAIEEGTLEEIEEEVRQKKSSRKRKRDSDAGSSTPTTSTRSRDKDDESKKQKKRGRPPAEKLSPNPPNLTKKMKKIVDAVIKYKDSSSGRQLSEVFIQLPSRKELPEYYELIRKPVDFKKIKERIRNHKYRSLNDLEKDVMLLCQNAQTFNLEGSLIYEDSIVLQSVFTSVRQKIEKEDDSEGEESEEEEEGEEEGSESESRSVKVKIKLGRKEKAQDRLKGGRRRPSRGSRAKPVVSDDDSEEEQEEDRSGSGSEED

The target in assay [1] is SMARCA2 (Homo sapiens, UniProt P51531). In words: HiBit assay in engineered HT1080 CRISPR knock-in cell, 6 hrs (B series), SMARCA2. As to conditions: HT1080 CRISPR knock-in cells, 6 hrs incubation. In general terms: With HiBiT, luminescence reflects the tagged protein that the partner subunit can reach.
In assay [2] the target is SMARCA4 (Homo sapiens, UniProt P51532). In words: HiBit assay in engineered HT1080 CRISPR knock-in cell, 6 hrs (B series), SMARCA4. As to conditions: HT1080 CRISPR knock-in cells, 6 hrs incubation. It counts as cell-based.

As for `Cc1ncsc1-c1ccc([C@H](C)NC(=O)[C@@H]2C[C@@H](O)CN2C(=O)[C@@H](c2cc(OC3CCC(N4CCC(c5ccc6c(c5)-n5c(nc(=O)c7c(Cl)cccc75)C6(C)C)CC4)CC3)no2)C(C)C)cc1` (stereo partly drawn) [Compound B81, (2S,4R)-1-((R)-2-(3-((4-(4-(4-chloro-7,7-dimethyl-5-oxo-5,7-dihydroindolo[1,2-a]quinazolin-10-yl)piperidin-1-yl)cyclohexyl)oxy)isoxazol-5-yl)-3-methylbutanoyl)-4-hydroxy-N-((S)-1-(4-(4-methylthiazol-5-yl)phenyl)ethyl)pyrrolidine-2-carboxamide], the “SMARC A2 HT1080 HiBit Dmax (%)” value in assay [1] is listed as “A (A (>90% degradation))”. Moreover, the DC50 in assay [1] (read-out: SMARC A2 HT1080 HiBit DC50) and in assay [2] (read-out: SMARC A4 HT1080 HiBit DC50) was less than 100 nM throughout. Further, the “SMARC A4 HT1080 HiBit Dmax(%)” value in assay [2] is listed as “A (A (>90% degradation))”.
